Data as given in patent US11311624B2, “Inhibitors of MEK/PI3K, JAK/MEK, JAK/PI3K/mTOR and MEK/PI3K/mTOR biological pathways and methods for improving lymphatic uptake, bioavailability, and solubility of therapeutic compounds” (THE REGENTS OF THE UNIVERSITY OF MICHIGAN, priority 2017, dated 2022).

Assay: In vivo lymph targeting of prodrug ST-65

Compound: COc1ccc(-c2ccc3c(N4CCOCC4C)nc(N4CCOCC4C)nc3n2)cc1COC(=O)CCOCCOCCOCCONC(=O)c1ccc(F)c(F)c1Nc1ccc(I)cc1F (stereo not shown)
- lymphatic targeting: high lymphatic targeting
